Data as given in PMC6269003, “Two New Coumarins from Micromelum falcatum with Cytotoxicity and Brine Shrimp Larvae Toxicity” (Molecules, 2012).

System: brine shrimp larvae
Settings: 96 well plates assay
Procedure: According to the method described by Wanyoike, brine shrimp eggs (Ocean Star International, Inc., USA) were hatched in a large beaker containing natural sea water (South China Sea) and they were cultured at room temperature for 48 h. With the help of a light source, the larvae grouped together on one side of the vessel and were easily collected for the assay. […] Each test was processed in triplicate with approximate ten larvae. Brine shrimps were counted under a magnifying glass after 24 h of incubation and maintaining the 96 well plates under illumination. The controls were prepared in the same manner except that the test samples were omitted.

Substance: microfalcatin isovalerate [Compound 14]
- LC50 against brine shrimp larvae: < 500 µM
